Read-outs that look alike come from different tables or passages of the source.
Molecular target: DQB1*0301 (Homo sapiens, UniProt P01909+P01920)
Test: Class II peptide-binding assay DQB1*0301
[1] = inhibition of radiolabeled probe binding, — read as no appreciable binding

Amino acid sequences for entries named in this document (tags omitted). Residues count along the entry.
UniProt P01920, 33-261: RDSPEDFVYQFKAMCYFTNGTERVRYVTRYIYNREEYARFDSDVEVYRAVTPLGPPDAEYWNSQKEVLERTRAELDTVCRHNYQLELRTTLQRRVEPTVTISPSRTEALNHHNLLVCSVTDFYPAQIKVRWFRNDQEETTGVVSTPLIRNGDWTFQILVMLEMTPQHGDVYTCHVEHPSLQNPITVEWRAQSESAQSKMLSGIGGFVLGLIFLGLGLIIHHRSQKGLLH

IC50 [1]	Compound	IC50	further results
–	CC[C@H](C)[C@H](NC(=O)[C@H](Cc1ccc(O)cc1)NC(=O)[C@@H]1CCCN1C(=O)[C@H](CC(=O)O)NC(=O)[C@H](CCC(=O)O)NC(=O)[C@H](CC(C)C)NC(=O)[C@@H](NC(=O)[C@H](C)N)C(C)C)C(=O)N[C@@H](CC(C)C)C(=O)N[C@@H](CC(C)C)C(=O)N[C@H](C(=O)N[C@@H](CO)C(=O)N[C@@H](CO)C(=O)N[C@@H](CCCCN)C(=O)N[C@H](C(=O)N[C@@H](CO)C(=O)O)C(C)C)C(C)C	> 20 µM	–
–	CC[C@H](C)[C@H](NC(=O)[C@@H](NC(=O)[C@H](CCC(=O)O)NC(=O)[C@H](CC(N)=O)NC(=O)[C@H](Cc1c[nH]c2ccccc12)NC(=O)CNC(=O)[C@@H](NC(=O)[C@H](CO)NC(=O)[C@H](CO)NC(=O)[C@H](CO)NC(=O)[C@H](CC(=O)O)NC(=O)[C@H](CCC(N)=O)NC(=O)[C@@H](N)CCCNC(=N)N)[C@@H](C)O)[C@@H](C)O)C(=O)N[C@H](C(=O)N[C@@H](CCC(=O)O)C(=O)O)C(C)C [RQDSSSTGWNETIVE]	–	IC50 (IFNb 15-mer peptides, Table 5D): 24.8 µM
–	CC(C)C[C@H](NC(=O)[C@H](Cc1c[nH]cn1)NC(=O)[C@H](CO)NC(=O)[C@H](C)NC(=O)[C@H](CO)NC(=O)[C@@H](NC(=O)[C@H](CCCCN)NC(=O)[C@@H]1CCCN1C(=O)[C@@H](NC(=O)[C@H](CCCNC(=N)N)NC(=O)[C@H](CC(C)C)NC(=O)[C@H](Cc1c[nH]c2ccccc12)NC(=O)[C@H](Cc1ccccc1)NC(=O)[C@H](CO)NC(=O)[C@@H](NC(=O)[C@@H](NC(=O)[C@H](Cc1ccccc1)NC(=O)[C@H](CC(N)=O)NC(=O)[C@H](CC(N)=O)NC(=O)[C@@H](N)Cc1ccccc1)[C@@H](C)O)C(C)C)C(C)C)C(C)C)C(=O)N[C@@H](CCC(=O)O)C(=O)N[C@@H](CCC(N)=O)C(=O)N[C@@H](Cc1ccc(O)cc1)C(=O)O	10.2 µM	–
3.55 µM	CC[C@H](C)[C@H](NC(=O)CN)C(=O)N[C@@H](CCC(N)=O)C(=O)N[C@H](C(=O)N[C@@H](CC(C)C)C(=O)N[C@@H](CCSC)C(=O)NCC(=O)N[C@@H](CCCNC(=N)N)C(=O)N[C@@H](CC(C)C)C(=O)N[C@@H](CCC(=O)O)C(=O)N[C@@H](CC(=O)O)C(=O)NCC(=O)N[C@@H](CO)C(=O)N1CCC[C@H]1C(=O)N[C@@H](CCCNC(=N)N)C(=O)O)[C@@H](C)O	–	–
–	CC(C)C[C@H](NC(=O)[C@H](Cc1c[nH]cn1)NC(=O)[C@H](CC(=O)O)NC(=O)[C@H](CC(C)C)NC(=O)[C@@H](NC(=O)[C@H](CC(N)=O)NC(=O)[C@@H](N)CC(=O)O)C(C)C)C(=O)N[C@H](C(=O)NCC(=O)N[C@@H](CCCNC(=N)N)C(=O)N[C@@H](CO)C(=O)N[C@@H](CS)C(=O)O)[C@@H](C)O	> 20 µM	–
9.66 µM	CC[C@H](C)[C@H](NC(=O)[C@H](CC(N)=O)NC(=O)[C@H](CCC(=O)O)NC(=O)[C@@H](N)CC(N)=O)C(=O)N[C@H](C(=O)N[C@H](C(=O)N1CCC[C@H]1C(=O)N[C@@H](CC(=O)O)C(=O)N[C@H](C(=O)N[C@@H](CCCCN)C(=O)N[C@H](C(=O)N[C@@H](CC(N)=O)C(=O)N[C@@H](Cc1ccccc1)C(=O)N[C@@H](Cc1ccc(O)cc1)C(=O)N[C@@H](C)C(=O)O)C(C)C)[C@@H](C)O)C(C)C)[C@@H](C)O	–	–
–	CC(C)C[C@H](NC(=O)[C@@H](NC(=O)[C@H](CC(C)C)NC(=O)[C@@H](NC(=O)[C@H](CCCCN)NC(=O)[C@H](Cc1ccc(O)cc1)NC(=O)CN)C(C)C)C(C)C)C(=O)N[C@@H](CC(N)=O)C(=O)N1CCC[C@H]1C(=O)N[C@@H](CO)C(=O)N[C@H](C(=O)N[C@@H](C)C(=O)N[C@@H](C)C(=O)N[C@H](C(=O)O)[C@@H](C)O)C(C)C	> 20 µM	–
13.7 µM	CC(C)C[C@H](NC(=O)[C@H](CCC(N)=O)NC(=O)[C@H](CC(C)C)NC(=O)[C@@H]1CCCN1C(=O)[C@H](CCC(=O)O)NC(=O)[C@H](Cc1c[nH]c2ccccc12)NC(=O)[C@@H]1CCCN1C(=O)[C@@H](N)CCC(N)=O)C(=O)N[C@@H](Cc1c[nH]cn1)C(=O)N[C@H](C(=O)N[C@@H](CC(=O)O)C(=O)N[C@@H](CCCCN)C(=O)N[C@@H](C)C(=O)N[C@H](C(=O)N[C@@H](CO)C(=O)O)C(C)C)C(C)C	–	–

— patent publication US20070184519A1, “Peptides, polypeptides, and proteins of reduced immunogenicity and methods for their production” (priority 2003, published 2007)
